From publication PMC5694482 (Frontiers in Pharmacology, 2017)

Amino acid sequences for entries named in this document (tags omitted). A change or cut given only in a name is not applied to a line headed by its entry.
UniProt Q9Y5N1, whole entry, species assumed: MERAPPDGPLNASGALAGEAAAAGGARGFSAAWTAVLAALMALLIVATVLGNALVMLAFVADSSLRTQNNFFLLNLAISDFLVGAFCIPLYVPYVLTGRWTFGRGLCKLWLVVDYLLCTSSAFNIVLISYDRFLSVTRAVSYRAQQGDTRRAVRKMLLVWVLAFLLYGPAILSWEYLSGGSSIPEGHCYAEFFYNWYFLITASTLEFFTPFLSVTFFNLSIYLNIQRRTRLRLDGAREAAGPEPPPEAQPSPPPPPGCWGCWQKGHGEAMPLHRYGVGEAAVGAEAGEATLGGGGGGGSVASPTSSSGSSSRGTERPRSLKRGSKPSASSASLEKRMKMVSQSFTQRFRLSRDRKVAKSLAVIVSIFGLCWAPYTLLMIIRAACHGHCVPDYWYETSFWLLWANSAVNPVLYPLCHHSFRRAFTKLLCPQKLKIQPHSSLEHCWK

Target: H3R (Homo sapiens, UniProt Q9Y5N1)
Conditions: H3R pKi ± SEM, displacement of 1.15 nM [3H]-histamine, HEK293T cells, Cheng-Prusoff

Compound: NC(=NCc1ccc(Cl)cc1)SCCCc1cnc[nH]1 [Clobenpropit, reference compound]
- Ki: 0.562 nM
